The assay has as its target Apoptosis regulator Bcl-2 (Homo sapiens, UniProt P10415). In words: Binding affinity to Bcl-2 (unknown origin) by fluorescence polarization assay. On the technique in general: In fluorescence polarisation assays a small probe gives low polarisation when free and higher when bound to something large.

Protein sequences, listed by entry. Tags and fused reporters are not part of them.
UniProt P10415, whole entry: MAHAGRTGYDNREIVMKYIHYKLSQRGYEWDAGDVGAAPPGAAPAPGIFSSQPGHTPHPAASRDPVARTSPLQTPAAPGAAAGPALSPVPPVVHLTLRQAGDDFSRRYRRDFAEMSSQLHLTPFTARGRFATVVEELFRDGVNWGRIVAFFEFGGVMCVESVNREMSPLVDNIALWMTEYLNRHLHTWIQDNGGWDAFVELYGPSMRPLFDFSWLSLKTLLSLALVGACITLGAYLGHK

What is called Ki is the dissociation constant of the complex between target and ligand, obtained from inhibition or displacement. As for `CC1(C)CCC(c2ccc(Cl)cc2)=C(CN2CCN(c3ccc(C(=O)NS(=O)(=O)c4ccc(N[C@H](CCN5CCOCC5)CSc5ccccc5)c(S(=O)(=O)C(F)(F)F)c4)cc3)CC2)C1` [NAVITOCLAX], the Ki was under 1 nM.

The values are drawn from ChEMBL document CHEMBL3792281, “Selective inhibitors of Bcl-2 and Bcl-xL: Balancing antitumor activity with on-target toxicity” (Bioorg Med Chem Lett, 2016).
